Twelve molecules from EP3026061A1 (NOVO NORDISK A/S, dated 2016) can be followed below.

The chains behind the UniProt entries cited, without tags or fusion partners. A line that says so, or that is headed by a name, gives the form on record, which may keep a tag or linker. Residues count along the entry.
UniProt Q9NP99, 21-205, form in doubt: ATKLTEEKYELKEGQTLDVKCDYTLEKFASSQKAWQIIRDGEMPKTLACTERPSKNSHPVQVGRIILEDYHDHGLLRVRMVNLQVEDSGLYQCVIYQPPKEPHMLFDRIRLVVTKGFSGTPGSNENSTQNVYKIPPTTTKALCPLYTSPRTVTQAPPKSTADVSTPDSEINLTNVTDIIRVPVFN

Where a chain is given by its changes, count along the chain named.

B1: mAb 0317 (antibody, human IgG4 S228P, kappa, V domains shown)
VH: EVQLVESGGGLVQPGGSLKLSCAASGFTFSTYAMHWVRQASGKGLEWVGRIRTKSSNYATYYAASVKGRFTISRDDSKNTAYLQMNSLKTEDTAVYYCTRDMGIRRQFAYWGQGTLVTVSS
VL: DIVLTQSPDSLAVSLGERATINCRASQSVDTFDYSFLHWYQQKPGQPPKLLIYRASNLESGVPDRFSGSGSGTDFTLTISSLQAEDVAVYYCQQSNSDPYTFGQGTKLEIKR
notes: Variant of mAb 0170
B2: mAb 0326 (antibody, human IgG4 S228P, kappa, V domains shown)
VH: B1 VH with N57S, A59Y
VL: B1 VL with Q27E, S97E
notes: Variant of mAb 0170
B3: mAb 0330 (antibody, human IgG4 S228P, kappa, V domains shown)
VH: B1 VH
VL: B1 VL with F32A, S97Q
notes: Variant of mAb 0170
B4: mAb 0333 (antibody, human IgG4 S228P, kappa, V domains shown)
VH: B1 VH with A59Y
VL: B1 VL with F32A, S97Q
notes: Variant of mAb 0170
B5: mAb 0325 (antibody, human IgG4 S228P, kappa, V domains shown)
VH: B1 VH with N57S
VL: B1 VL with Q27E, S97E
notes: Variant of mAb 0170
B6: mAb 0318 (antibody, human IgG4 S228P, kappa, V domains shown)
VH: B1 VH
VL: B1 VL with S97Q
notes: Variant of mAb 0170
B7: mAb 0332 (antibody, human IgG4 S228P, kappa, V domains shown)
VH: B1 VH with A59Y
VL: B1 VL with S97Q
notes: Variant of mAb 0170
B8: mAb 0320 (antibody, human IgG4 S228P, kappa, V domains shown)
VH: B1 VH
VL: B1 VL with Q27E, S97Q
notes: Variant of mAb 0170
B9: mAb 0323 (antibody, human IgG4 S228P, kappa, V domains shown)
VH: B1 VH
VL: B1 VL with Q27E, F32S, S97E
notes: Variant of mAb 0170
B10: mAb 0321 (antibody, human IgG4 S228P, kappa, V domains shown)
VH: B1 VH
VL: B1 VL with S97E
notes: Variant of mAb 0170
B11: mAb 0319 (antibody, human IgG4 S228P, kappa, V domains shown)
VH: B1 VH
VL: B1 VL with Q27E
notes: Variant of mAb 0170
B12: mAb 0324 (antibody, human IgG4 S228P, kappa, V domains shown)
VH: B1 VH with A59Y
VL: B1 VL with Q27E, S97E
notes: Variant of mAb 0170

The target in the experiment is T1, human TREM-1-Fc (human, UniProt Q9NP99 21-205).
T1 construct: also called His tagged human TREM-1; hTREM-1
As to the kind of experiment: SPR (ProteOn), captured mAb, TREM-1 as analyte, 1:1 fit.
For orientation: Kd means the equilibrium constant for the complex coming apart. High values mean lower affinity, low ones higher affinity. The term koff denotes a measure of how fast the partners let go of each other. High values mean a short-lived complex, low ones a long-lived complex. In general, kon refers to a measure of how fast the partners come together. Low readings indicate slow association, high ones fast association. Turning to B1, the affinity, expressed as Kd, was 0.2 nM; the off-rate (koff) turned out to be 0.0006 s⁻¹; the kon came out at 4e+06 M⁻¹ s⁻¹.
As to B2, the Kd is 0.2 nM, the koff was 0.0007 s⁻¹ and the kon was found to be 3e+06 M⁻¹ s⁻¹.
B3 showed a Kd of 0.1 nM, a koff of 0.0003 s⁻¹ and a kon of 2e+06 M⁻¹ s⁻¹.
Molecule B4 yielded a Kd of 0.2 nM, a koff of 0.0005 s⁻¹ and a kon of 2e+06 M⁻¹ s⁻¹.
In the same order, the values of B5 are 0.08 nM, 0.0003 s⁻¹ and 4e+06 M⁻¹ s⁻¹.
Molecule B6 returned a Kd of 0.2 nM, a koff of 0.0007 s⁻¹ and a kon of 3e+06 M⁻¹ s⁻¹.
As for B7, the Kd worked out at 0.5 nM, the koff stood at 0.001 s⁻¹ and the kon is 3e+06 M⁻¹ s⁻¹.
The matching figures for B8: 0.2 nM, 0.0008 s⁻¹ and 4e+06 M⁻¹ s⁻¹.
As for B9, the Kd is 0.3 nM, the koff came to 0.0006 s⁻¹ and the kon came to 2e+06 M⁻¹ s⁻¹.
Turning to B10, the Kd is 0.2 nM, the koff turned out to be 0.0006 s⁻¹ and the kon stood at 4e+06 M⁻¹ s⁻¹.
B11 returned a Kd of 0.2 nM, a koff of 0.0006 s⁻¹ and a kon of 4e+06 M⁻¹ s⁻¹.
The molecule B12 yielded a Kd of 0.3 nM, a koff of 0.0008 s⁻¹ and a kon of 3e+06 M⁻¹ s⁻¹.
